Measured values published in patent publication US20040241222A1, “Lipid-polymer-conjugates compositions” (priority 2001, published 2004).

What was measured:
[1] = Particle size and polydispersity of liposomes by dynamic light scattering; assay type: physicochemical; conditions: prednisolone phosphate-containing DPPC/cholesterol liposomes, light scattering (Malvern Zeta-sizer)
Procedure: The lipid loss during preparation of the liposomes was 25%, determined by comparing the final radioactivity of the preparation with the activity before the extrusion procedure. The suspension of liposomes was stored in a nitrogen atmosphere at 4° C.
Liposomes were prepared using the film method, as described in example 23. Instead of egg phosphatidylcholine dipalmitoyl phosphatidylcholine was used. 5 mM HEPES buffer was added to the dry lipid film and shaken during 5 minutes in the presence of glass beads in order to enable complete hydration of the lipid film. The liposomes were sized by extrusion 12 times through 2 stacked PC membranes having pore sizes of […]. The resulting liposome dispersions were dialysed (MWCO 10,000) and average particle sizes were determined using dynamic light scattering technique. See table 1 for the properties of the liposomal preparations.

[2] = Encapsulation efficiency of prednisolone phosphate in liposomes (HPLC); assay type: physicochemical; conditions: prednisolone phosphate-containing DPPC/cholesterol liposomes

For “Poly(2-hydroxyethyl)-L-asparagine DODASuc [Ex. 14]”, the Mean particle size [1] was “about 85 nm” and the “Encapsulation efficiency of the prednisolone phosphate” value [2] was 2.6%.
